The nature of data set [1]: Density and viscosity of 3p, 3pRB and surfactant solution. In kind it is physicochemical. The following applies: 2-EH-4PO-15EO 1 wt % in RB, 347 K and atmospheric pressure.
Data set [2] can be described thus: IFT between oil and stable surfactant solutions. The format is physicochemical. The following applies: oil vs 1 wt % surfactant solution in RB, 347 K, atmospheric pressure.
For data set [3] the following is noted: 1 wt % surfactant in RB, 347 K.
For data set [4] the following is noted: 1.0 wt % in RB, water/oil ratio 7:3, 347 K, at least 7 days.

On to “2-ethylhexanol-4 propylene oxide-15 ethylene oxide [2-EH-4PO-15EO]”, for which the “density of the surfactant solution” value in data set [1] amounted to 1039 kg/m^3. The “IFT (mN/m)” value in data set [2] is 0.21 mN/m. Further, in data set [3], the stability result is on record as “stable”. For the same substance, the “phase behavior of oil/2-EH-4PO-15EO/RB” value in data set [4] is “A small amount of macroemulsion was observed”.

Values taken from patent publication US12031087B2, “Oxygenated solvents for improved production of oil and gas” (Board of Regents, The University of Texas System, priority 2019, dated 2024).
